The results in this text go back to ChEMBL document CHEMBL3227972, “Correlation of carbonic anhydrase inhibitory activities of benzenesulfonamides with the data obtained by use of nitrogen-14 nuclear quadrupole resonance” (J Med Chem, 1979).

For the experiment, the species on record is Homo sapiens. Description: Inhibition of carbonic anhydrase (unknown origin) relative to sulfanilamide.

Each structure is given as a SMILES string.

In the case of `Cc1ccc(S(N)(=O)=O)cc1`, the fold change (FC) is 8.5.
